Laboratory results: patent US20220010258A1, “DEVICE THAT CAN SERVE AS A HEMATO-ENCEPHALITIC BARRIER MODEL” (priority 2017, published 2022)

How the values were obtained:
[1] = tested on: device AD (endothelial cells and pericytes from APPswePS1dE9 mice)
[2] = tested on: BBB Kit (RBT-24H) from Pharmaco-Cell, primary HEB model from rat brain cells
[3] = tested on: cryopreserved 24-well format device (murine HEB model)

FITC-dextran
permeability of the device AD higher as compared to the device WT [1]: 46%
factor by which impermeability is better on the device of the invention compared to the commercially available model [2]: 6.7
coefficient of permeability [3]: 6-20 10^−6 cm/s
permeability coefficient [3]: 3.278±0.925 10^−6 cm/s
